Source: US20170145069A1 (Novo Nordisk, published 2017)

Sequences of proteins named here, by UniProt entry; tags and fusion partners are left off. A change or cut given only in a name is not applied to a line headed by its entry.
UniProt P43220: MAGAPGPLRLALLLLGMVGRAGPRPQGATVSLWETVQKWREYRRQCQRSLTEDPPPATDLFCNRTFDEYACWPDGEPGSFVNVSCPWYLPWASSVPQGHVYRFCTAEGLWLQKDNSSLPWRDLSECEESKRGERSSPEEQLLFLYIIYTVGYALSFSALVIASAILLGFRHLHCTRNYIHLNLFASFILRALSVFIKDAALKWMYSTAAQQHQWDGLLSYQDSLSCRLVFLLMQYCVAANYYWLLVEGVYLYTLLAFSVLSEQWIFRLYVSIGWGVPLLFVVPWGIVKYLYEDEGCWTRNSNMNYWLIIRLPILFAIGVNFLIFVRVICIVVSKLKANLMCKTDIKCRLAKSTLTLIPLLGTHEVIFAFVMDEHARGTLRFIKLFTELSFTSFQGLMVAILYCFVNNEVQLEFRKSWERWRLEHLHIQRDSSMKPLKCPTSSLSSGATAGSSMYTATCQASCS

Assays:
[1] = target: T1, human GLP-1 receptor (human, UniProt P43220 24-463); assay: cell-based or functional assay
[2] = target: T1, human GLP-1 receptor; assay: SPA, displacement of 125I-GLP-1(7-36)NH2, BHK membranes, 0.001% HSA
Protocol: Test compounds, membranes, SPA-particles and [¹²⁵I] ]-GLP-1(7-36)NH₂ were diluted in assay buffer. 50 ul (micro liter) buffer (“low albumin” experiment containing 0.001% HSA) was added to Optiplate, and 25 ul of test compounds were added. 5-10 μg membrane protein/sample was added (50 μl) corresponding to 0.1-0.2 mg protein/ml (to be preferably optimised for each membrane preparation). SPA-particles (Wheatgerm agglutinin SPA beads, Perkin Elmer, #RPNQ0001) were added in an amount of 0.5 mg/well (50 μl). The incubation was started with [¹²⁵I]-GLP-1]-(7-36)NH₂ (final concentration 0.06 nM corresponding to 49.880 DPM, 25 μl). The plates were sealed with PlateSealer and incubated for 120 minutes at 30° C. while shaking. The plates were centrifuged (1500 rpm, 10 min) and counted in Topcounter.
The IC₅₀ value was read from the curve as the concentration which displaces 50% of ¹²⁵I-GLP-1 from the receptor.

B1: GLP-1 derivative of Example 3 (Chem. 22), N^eps26,N^eps37-diacylated [His^31,Gln^34,Lys^37]-GLP-1-(7-37)-peptide (peptide)
peptide: HAEGTFTSDVSSYLEGQAAKEFIAHLVQGRK
modifications: eps-amino of Lys26 and Lys37 each acylated with 10-(4-carboxyphenoxy)decanoyl-gGlu-Ser-Ser-Gly-Ser-Ser-Gly
In vitro potency (AlphaScreen cAMP; membranes) EC50 [1]: 0.137 nM | IC50 [2]: 11.6 nM
